According to patent publication US20260382729A1, “HETEROBIFUNCTIONAL COMPOUNDS AS p53 ACETYLATORS” (published 2026):

Columns and labels:
[1] = test system: bromodomain (BRD) of CBP/p300; assay: AlphaScreen binding assay, CBP/p300 bromodomain; conditions: read-out: IC50 for binding to CBP/p300 bromodomain, n=2
From the text: . In addition, MS78 induced p53K382 acetylation in a time-dependent manner (FIG. 6D). […] . FIG. 12. MS78 is selective for the p300/CBP bromodomain over other bromodomain-containing proteins. […] .

[2] = test system: U-2 OS cells; assay: cell viability, U-2 OS (WT p53); conditions: U-2 OS (WT p53), 72 h
From the text: Right: quantification of the normalized p53K382ac level in BxPC3 cells from three independent experiments. *P<0.05, **P<0.01, ***P<0.001. […] . GraphPad Prism 8 was used in analysis of raw data. […] . Cells were fixed and stained with crystal violet and the images are representative of two independent experiments. […] . NCI-H1299 (CRL-5803), BxPC3 (CRL-1687) and U-20S (HTB-96) were purchased from the American Tissue Culture Collection (ATCC, Manassas, VA). In addition, NUGC-3 were obtained from the Japan Health Science Research Resources Bank (JCRB, JCRB0822). NCI-H1299, BxPC3 and NUGC-3 were cultured in RPMI 1640 medium (Thermo Fisher Scientific Inc., Waltham, Massachusetts) supplemented with 10% heat-inactivated fetal bovine serum Gibco™ (FBS) (Life Technologies, Grand Island, NY) and 1% Gibco™ Penicillin/Streptomycin (Life Technologies, Grand Island, NY). […]
The cell viability assay was performed as previously described.^48 Briefly 5×10^4 cells were seeded per well into 96-well microplates. […] Cell viability was evaluated using WST-8 reagent (CK04, Dojindo). Absorbance signals were obtained with Infinite F PLEX plate reader (TECAN, Morrisville, NC) at 450 nm with 690 nm as reference wavelength after 3 h incubation at 37 °C. […]

[3] = test system: p53K382ac level in NUGC-3 cells; assay: p53K382ac level, Western blot, NUGC-3; conditions: 10 μM, 24 h
From the text: Right: quantification of the normalized p53K382ac level in BxPC3 cells from three independent experiments. *P<0.05, **P<0.01, ***P<0.001. […] . GraphPad Prism 8 was used in analysis of raw data. […] . Cells were fixed and stained with crystal violet and the images are representative of two independent experiments. […] . Total cell lysate was used for western blots, as previously described.^47 The following primary antibodies were used in the study: Vinculin (Cell Signaling Technology [CST], 13901), p53 (CST, 2527), acetyl-p53 (lys-382) (CST, 2525), acetyl-p53 (lys-379) (CST, 2570), p21 (CST, 2947), p300 (CST, 86377), p53 polyclonal antibody (Proteintech, 10442-1-AP). Blots were imaged using fluorescence-labeled secondary antibodies on LI-COR Odyssey CLx Imaging Systems.

[4] = test system: p53-p300 interaction in NCI-H1299 p53-null cells; assay: p53-p300 interaction by p53-FLAG pull-down, NCI-H1299 (p53-null); conditions: 24 h
From the text: FIG. 6. Discovery and characterization of MS78. (A) Chemical structure of MS78, derived from compound 7. […] . Right, quantification of the normalized p53K382ac level on the left. Results shown are the mean values±SD from three independent experiments. […] . Results shown are representative of three independent experiments. […] . Right, quantification of normalized p300 and p53K382ac levels from three independent experiments shown on the left. […] . Right, quantification of normalized p300 and p53K382ac levels from three independent experiments shown on the left. […] . Right, quantification of the p300 and normalized p53K382ac levels from four independent experiments shown on the left (***P<0.001).
Next, we performed endogenous IP experiments to pull down FLAG-tagged p53Y220C to assess the ternary complex formation between p53Y220C and p300 in the presence of MS78. We treated NCI-H1299 p53-null and NCI-H1299 p53Y220C cells with MS78 at two concentrations. […] To further confirm that p53Y220C K382 acetylation depends on p300, we knocked down p300 using siRNA in the NCI-H1299 (p53Y220C) cell line and monitored p53Y220C K382 acetylation. […] . […] Finally, we performed competition rescue experiments by pretreating the NCI-H1299 p53Y220C cell line with 10 μM of compound 33 (the p300/CBP bromodomain binder used in MS78) for 2 hours. […] . […]

Question: Which IC50 [1] does the source give for CCn1c2ccc(CNCCOCCOCCOCCn3cc(COc4ccc(CCc5nc6cc(-c7c(C)noc7C)ccc6n5CCN5CCOCC5)cc4F)nn3)cc2c2ccc(-c3cc(C)cs3)cc21 here?
Answer: Its IC50 is 3.02 µM.

Question: And the GI50 [2]?
Answer: Its GI50 is > 10 µM.

Question: And the “increase in the p53K382ac level” value [3]?
Answer: Its value is “about 4 fold”.

Question: What about the “interaction between p53 and p300” value [4] of the same molecule?
Answer: Its value is “no interaction was observed”.
